Source: ChEMBL document CHEMBL1821575, “A novel amino-benzosuberone derivative is a picomolar inhibitor of mammalian aminopeptidase N/CD13” (Bioorg Med Chem, 2011)

Target: T1, Aminopeptidase N (Sus scrofa) (UniProt P15145)
T1 sequence (whole entry): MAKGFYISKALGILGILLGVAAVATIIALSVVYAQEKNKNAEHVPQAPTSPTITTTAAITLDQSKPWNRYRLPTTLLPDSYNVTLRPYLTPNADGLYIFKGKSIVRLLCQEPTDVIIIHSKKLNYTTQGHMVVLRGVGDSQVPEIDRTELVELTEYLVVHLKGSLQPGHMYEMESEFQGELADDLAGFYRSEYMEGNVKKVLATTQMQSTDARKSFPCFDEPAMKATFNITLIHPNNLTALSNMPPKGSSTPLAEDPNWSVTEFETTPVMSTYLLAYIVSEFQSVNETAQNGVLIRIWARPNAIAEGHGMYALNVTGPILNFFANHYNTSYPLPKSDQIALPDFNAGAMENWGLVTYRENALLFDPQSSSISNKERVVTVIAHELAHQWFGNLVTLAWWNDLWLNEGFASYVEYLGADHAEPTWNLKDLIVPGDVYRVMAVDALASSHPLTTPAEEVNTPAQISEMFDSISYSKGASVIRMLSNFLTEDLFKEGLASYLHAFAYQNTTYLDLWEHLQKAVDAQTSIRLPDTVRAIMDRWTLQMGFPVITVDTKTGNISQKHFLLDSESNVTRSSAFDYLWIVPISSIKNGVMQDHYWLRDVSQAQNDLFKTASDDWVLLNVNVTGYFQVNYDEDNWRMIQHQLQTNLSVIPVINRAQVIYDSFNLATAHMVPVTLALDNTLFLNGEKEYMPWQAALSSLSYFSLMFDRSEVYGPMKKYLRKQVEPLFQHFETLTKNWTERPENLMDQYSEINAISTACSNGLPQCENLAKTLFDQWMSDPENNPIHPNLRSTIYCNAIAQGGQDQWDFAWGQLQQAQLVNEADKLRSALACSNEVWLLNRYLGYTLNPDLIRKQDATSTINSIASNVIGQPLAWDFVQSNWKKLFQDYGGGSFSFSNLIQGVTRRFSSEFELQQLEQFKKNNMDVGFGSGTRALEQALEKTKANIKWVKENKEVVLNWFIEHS
Experiment: Competitive inhibition of porcine kidney APN using L-leucine-p-nitroanilide as substrate after 30 mins by Dixon plot analysis

inhibition: Active
SMILES: NC1CCc2c(Br)ccc(-c3ccccc3)c2CC1=O (racemic)

Active and inactive are the calls of the source. The calls are words filed in the database; no cut-off is given here.
